# AlphaSeq binding of Ab-14 heavy chain variants to a spike HR2 peptide

Target peptide (SARS-CoV-2 spike, HR2 region): PDVDLGDISGINAS

Parent scFv Ab-14: VH joined to VL by the linker GGGGSGGGGSGGGGS. Changes lie in the heavy chain CDRs alone.
VH: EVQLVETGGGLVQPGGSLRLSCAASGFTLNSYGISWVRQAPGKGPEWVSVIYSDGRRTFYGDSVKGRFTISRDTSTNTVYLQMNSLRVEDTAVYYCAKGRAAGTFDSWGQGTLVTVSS
VL: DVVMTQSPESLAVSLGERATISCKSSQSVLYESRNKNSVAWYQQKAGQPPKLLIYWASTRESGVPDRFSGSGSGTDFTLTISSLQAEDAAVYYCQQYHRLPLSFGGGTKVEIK

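AAYL49 was designed without a model: most single CDR substitutions and a random sample of double and triple ones. Affinity was read by AlphaSeq, a pooled yeast mating assay with surface-displayed partners. The frequency of each diploid, read from paired DNA barcodes, reflects how well the two displayed proteins bind. Each replicate has its own calibration line, from reference interactions of the BCL2 family. There are three technical replicates.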

Substitutions are numbered in sequence along the VH above, starting at 1 (not Kabat). All variants listed here change S53 of the VH, counted from its first residue. Values are apparent Kd, the geometric mean of the replicates that gave a signal; lower means stronger binding. "no signal" means that the variant was in the library but no mating with the target was seen in any replicate; the authors take this as a sign of poor binding, and no number exists. For reference, the parent read 4.4 nM as the reference entry and 13 µM (one replicate of three) as a member of this library.

F27C/S53R/R56F: no signal (0 of 3 replicates; controls 0 of 9).
S53I/G55N/A102N: no signal (0 of 3 replicates; controls 1 of 9).
S53E/T58W/R100C: no signal (0 of 3 replicates; controls 0 of 9).
S35L/S53L/K65W: no signal (0 of 3 replicates; controls 0 of 9).
S35R/S53L/G61D: 10 µM (1 of 3 replicates; controls 3 of 9).
S53Y/D54R: 7.3 µM (1 of 3 replicates; controls 0 of 9).
F27E/S53I/K65N: 8.3 µM (1 of 3 replicates; controls 2 of 9).
S31Q/S53L: 2.9 µM (1 of 3 replicates; controls 0 of 9).
S53R/K65M/S107M: no signal (0 of 3 replicates; controls 1 of 9).
S53T/S63R/G99F: 2.6 µM (2 of 3 replicates; controls 0 of 9).
F27N/S53I/R57L: no signal (0 of 3 replicates; controls 1 of 9).
Y52P/S53W/G61E: no signal (0 of 3 replicates; controls 0 of 9).
S53L/S63Q/A101E: 3.5 µM (3 of 3 replicates; controls 1 of 9).
I51R/S53T/F105H: no signal (0 of 3 replicates; controls 3 of 9).
V50N/I51W/S53R: no signal (0 of 3 replicates; controls 0 of 9).
G26V/S53R/K65H: no signal (0 of 3 replicates; controls 0 of 9).
I51C/S53Q/G103H: 260 µM (1 of 3 replicates; controls 4 of 9).
S53C/Y60G/T104S: 9.9 µM (1 of 3 replicates; controls 1 of 9).
S53W/G61A/S63D: 35 nM (3 of 3 replicates; controls 1 of 9).
G26V/S53F/K65P: no signal (0 of 3 replicates; controls 0 of 9).
G26C/Y52T/S53G: 24 µM (3 of 3 replicates; controls 0 of 9).
S53A/R56V/R100F: 1.5 nM (3 of 3 replicates; controls 2 of 9).
S53V/T58G/T104K: 32 µM (2 of 3 replicates; controls 2 of 9).
G33F/S35A/S53V: no signal (0 of 3 replicates; controls 0 of 9).
S53I/Y60E/F105K: 810 nM (1 of 3 replicates; controls 4 of 9).
S35R/S53T/G99Y: no signal (0 of 3 replicates; controls 2 of 9).
I34W/S35H/S53A: 150 nM (3 of 3 replicates; controls 1 of 9).
Y32N/S53F/S107K: no signal (0 of 3 replicates; controls 0 of 9).
F27L/Y52N/S53E: no signal (0 of 3 replicates; controls 1 of 9).
L29N/S53A/D54L: no signal (0 of 3 replicates; controls 0 of 9).
S53F/D62A/G99F: no signal (0 of 3 replicates; controls 0 of 9).
S53C/R56L/K65P: no signal (0 of 3 replicates; controls 1 of 9).
S53E/G61I/D106C: 31 µM (1 of 3 replicates; controls 3 of 9).
S35H/S53L/F105I: 66 µM (1 of 3 replicates; controls 1 of 9).
S53K/G99P/D106N: 10 µM (2 of 3 replicates; controls 2 of 9).
S53Y/V64G/A102N: 7.0 µM (3 of 3 replicates; controls 7 of 9).
S53H/A102E: 8.9 µM (1 of 3 replicates; controls 1 of 9).
S35T/S53C/G99S: 410 µM (2 of 3 replicates; controls 4 of 9).
V50Y/S53M/T104N: no signal (0 of 3 replicates; controls 5 of 9).
S53W: 180 nM (3 of 3 replicates; controls 1 of 9).
Y32K/S53M/T58Q: 68 µM (2 of 3 replicates; controls 3 of 9).
S53N/V64A/K65D: 3.4 µM (2 of 3 replicates; controls 1 of 9).
S53R/T58M/G103M: no signal (0 of 3 replicates; controls 0 of 9).
G26T/S53E/R57G: 6.6 µM (3 of 3 replicates; controls 2 of 9).
G33E/S53Q/K65A: 19 µM (1 of 3 replicates; controls 0 of 9).

The 6 strongest on average among those seen in every replicate, once more:

Variant S53A/R56V/R100F showed 1.5 nM (3 of 3 replicates; controls 2 of 9).
Variant S53W/G61A/S63D showed 35 nM (3 of 3 replicates; controls 1 of 9).
Variant I34W/S35H/S53A showed 150 nM (3 of 3 replicates; controls 1 of 9).
Variant S53W showed 180 nM (3 of 3 replicates; controls 1 of 9).
Variant S53L/S63Q/A101E showed 3.5 µM (3 of 3 replicates; controls 1 of 9).
Variant G26T/S53E/R57G showed 6.6 µM (3 of 3 replicates; controls 2 of 9).

Three control strains display no target. For library AAYL49, 15% of the pairings with them gave a signal, with a median of 11 µM and one signal in twenty below 680 nM, so weak values seen in few replicates may be background. Also given: how often the same scFv was detected with the empty control strains.

Values reported by Engelhart et al. 2022, doi:10.1038/s41597-022-01779-4 (FLAb copy).